# Experimental data taken from ChEMBL document CHEMBL1287644, “The novel benzopyran class of selective cyclooxygenase-2 inhibitors. Part III: the three microdose candidates” (Bioorg Med Chem Lett, 2010).
# The chains behind the UniProt entries cited, without tags or fusion partners.
# UniProt P23219, whole entry: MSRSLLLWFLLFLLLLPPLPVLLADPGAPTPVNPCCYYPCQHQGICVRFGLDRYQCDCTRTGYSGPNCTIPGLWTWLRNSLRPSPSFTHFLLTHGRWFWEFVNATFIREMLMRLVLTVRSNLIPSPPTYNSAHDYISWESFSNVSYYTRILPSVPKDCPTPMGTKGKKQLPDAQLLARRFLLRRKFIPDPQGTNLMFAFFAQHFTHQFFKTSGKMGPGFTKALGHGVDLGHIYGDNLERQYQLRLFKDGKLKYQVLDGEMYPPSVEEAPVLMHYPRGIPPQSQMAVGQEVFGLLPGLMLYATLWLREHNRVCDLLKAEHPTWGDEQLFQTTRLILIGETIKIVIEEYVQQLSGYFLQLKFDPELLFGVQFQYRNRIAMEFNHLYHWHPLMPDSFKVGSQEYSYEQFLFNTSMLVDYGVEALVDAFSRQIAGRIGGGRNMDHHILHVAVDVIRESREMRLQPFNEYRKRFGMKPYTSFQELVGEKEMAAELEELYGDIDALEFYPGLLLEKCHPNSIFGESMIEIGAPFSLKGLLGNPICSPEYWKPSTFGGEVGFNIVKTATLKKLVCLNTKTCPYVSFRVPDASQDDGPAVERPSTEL
# Molecular target: Prostaglandin G/H synthase 1 (Homo sapiens, UniProt P23219)
# Assay: Inhibition of human COX-1
row,IC50 [µM],Structure (SMILES)
1,4.99,Cc1c(Cl)cc2c(c1C)O[C@H](C(F)(F)F)C(C(=O)O)=C2
2,36.3,Cc1c(Cl)cc2c(c1C)OC(C(F)(F)F)C(C(=O)O)=C2 (configuration not stated)
